Values of other authors as cited in US8053470B2, “Process for the preparation of polynuclear ferric hydroxide-saccaride complexes” (Chongqing Pharmaceutical Research Institute Co., Ltd., priority 2005, dated 2011).

Test system: patients
Settings: cited from earlier work

iron dextran
patients died of allergic responses (1991-1999): more than 30 patients | dosage-independent allergic response (human, in vivo): 0.7%-1%
